Data from PMC5605198, “MELK is not necessary for the proliferation of basal-like breast cancer cells” (eLife, 2017).
Read-outs that look alike come from different tables or passages of the source.

Protein sequences, listed by entry. Tags and fused reporters are not part of them. Lines headed by an entry give the natural chain unless they say otherwise; changes in a name come on top.
UniProt Q14680: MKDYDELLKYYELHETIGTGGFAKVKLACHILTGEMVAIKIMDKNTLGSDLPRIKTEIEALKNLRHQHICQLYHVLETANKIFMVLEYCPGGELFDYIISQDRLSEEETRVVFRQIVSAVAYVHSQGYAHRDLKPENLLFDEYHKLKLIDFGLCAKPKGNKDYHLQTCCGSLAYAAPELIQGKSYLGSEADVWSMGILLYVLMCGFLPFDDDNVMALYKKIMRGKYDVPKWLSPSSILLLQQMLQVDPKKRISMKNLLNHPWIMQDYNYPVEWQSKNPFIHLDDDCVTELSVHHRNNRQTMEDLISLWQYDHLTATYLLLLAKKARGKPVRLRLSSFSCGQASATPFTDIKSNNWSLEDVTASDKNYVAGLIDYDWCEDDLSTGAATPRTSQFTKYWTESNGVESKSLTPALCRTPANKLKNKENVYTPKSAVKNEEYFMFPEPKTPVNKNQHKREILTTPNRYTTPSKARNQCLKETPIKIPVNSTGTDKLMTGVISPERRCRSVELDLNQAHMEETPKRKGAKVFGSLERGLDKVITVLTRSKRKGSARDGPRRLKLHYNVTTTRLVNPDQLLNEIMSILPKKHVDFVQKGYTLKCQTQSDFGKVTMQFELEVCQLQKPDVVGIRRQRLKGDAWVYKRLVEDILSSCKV

Target: MELK (Homo sapiens, UniProt Q14680)
Experiment: Z’-LYTE enzymatic assay
Assay type: biochemical

SMILES: CC(=O)c1cnc2ccc(-c3cc(Cl)c(O)c(Cl)c3)nc2c1N[C@H]1CC[C@H](CN(C)C)CC1 [OTSSP167]
- IC50 (Z’-LYTE assay at [ATP]=apparent Km, read-out: Biochemical IC50 MELK): 0.5 nM
- IC50 (measured by Z’LYTE biochemical assay, class symbols in Figure 2C, read-out: Potency (MELK)): < 1 nM
- IC50 (note column of Table 3, read-out: Note: MELK IC50): 0.5 nM
